Our source for the GFP signal change (wild-type ribosome) values is PubChem BioAssay AID720706 (Broad Institute, 2013).

Each structure is given as a SMILES string. This is a selection; strong and weak results do not stand in their true shares. Activity calls are given as the source filed them.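 The calls were made as follows: active = significant combined selectivity score with lowered wild-type GFP, culture density cut under 30%, mutant RFP and density less affected; inactive = any of these conditions unmet.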

The nature of the test: reduced GFP signal of wild-type E. coli, primary screen, bacterial rRNA inhibitor project, GFP/RFP fluorescence, OD600, single point (AID 720706). The settings on record: E. coli WT GFP vs humanized-ribosome RFP mutants, 24 h, stronger effect = lower value, DMSO median 0, no signal -100.
`CCC(=O)N(c1ccccc1)C1(COC)CCN(CCc2cccs2)CC1`: the GFP signal change (wild-type ribosome) was inactive: -0.05%.
Under `CCC(=O)N(c1ccccc1)C1(COC)CCN(CCn2nnn(CC)c2=O)CC1` stands inactive: 2.08%.
